Assay results: EP1903056A2, “HLA-A1, -A2 -A3, -A24, -B7, and -B44 tumor associated antigen peptides and compositions” (priority 2002, dated 2004)
Like-named read-outs stand apart in the source and are kept apart here. Values belong to the compound of their own block, whether it stands above or below them.

Tests used:
[1] = target: B*4002 (B61) (Homo sapiens, UniProt P01889, A65T/A93T/A95T/D138N/D201E/D98Y/E176V/E204Q/E69K/K202T/N87E/Q56L/Q94N/R180L/S48T/Y33H/Y91S); experiment: B44 supertype peptide binding, B*4002; conditions: read-out: B* 4002
[2] = target: B*4001(B60) (Homo sapiens, UniProt P01889, A65T/A93T/A95T/D138N/D98Y/E176V/E69K/N87E/Q56L/Q94N/R180L/S121R/S35A/S48T/T167S/V36M/W171L/Y33H/Y91S); experiment: B44 supertype peptide binding, B*4001; conditions: read-out: B* 4001
[3] = target: B*4501 (Homo sapiens, UniProt P01889, A329T/A65T/A93T/A95T/C349S/D138N/D201E/D98Y/E176V/E187L/E204Q/E69K/H137Y/K202T/L119W/N87E/Q56L/Q94N/R155S/R180D/S121R/S35A/S48T/V127L/V306I/V36M/W191S/Y140L/Y33H/Y91S); experiment: B44 supertype peptide binding, B*4501
[4] = target: B*4403 (Homo sapiens, UniProt P01889, A223V/A65T/A93T/A95T/D201E/D98Y/E176V/E187L/E204Q/E69K/G107R/H137Y/K202T/L105A/L119I/N104T/N87E/Q56L/Q94N/R106L/R155S/R180L/S101N/S121R/S35A/S48T/T118I/V36M/W191S/Y140D/Y91S); experiment: B44 supertype peptide binding, B*4403; conditions: read-out: B* 4403
[5] = target: B*4402 (Homo sapiens, UniProt P01889, A223V/A65T/A93T/A95T/D201E/D98Y/E176V/E187L/E204Q/E69K/G107R/H137Y/K202T/L105A/L119I/N104T/N87E/Q56L/Q94N/R106L/R155S/R180D/S101N/S121R/S35A/S48T/T118I/V36M/W191S/Y140D/Y91S); experiment: B44 supertype peptide binding, B*4402; conditions: read-out: B* 4402
[6] = target: B*1801 (Homo sapiens, UniProt P01889, A329T/A93T/A95T/C349S/D201E/D54G/D98Y/E176V/E187T/E204Q/E69T/K202T/Q94N/R155S/R180L/S121R/V306I/Y140S/Y195H/Y33H/Y91S); experiment: B44 supertype peptide binding, B*1801
[7] = test system: B44 supertype (B*1801, B*4001, B*4002, B*4402, B*4403, B*4501); experiment: B44 supertype cross-binding (degeneracy, number of alleles bound); design: species or system human; conditions: Table 29: MAGE2-derived B44 peptides; number of the six B44 alleles bound
[8] = CEA-derived B44 peptides, binding affinity, unit inferred
[9] = CEA-derived B44 peptides, binding affinity, unit inferred, read-out: B* 4501
[10] = HER 2/neu-derived B44 peptides, Table 27
[11] = HER 2/neu-derived B44 peptides, Table 27, read-out: B* 4501
[12] = Table 28: p53-derived B44 peptides
[13] = Table 28: p53-derived B44 peptides, read-out: B* 4501
[14] = Table 29: MAGE2-derived B44 peptides
[15] = Table 29: MAGE2-derived B44 peptides, read-out: B* 4501

IC50 [1, 10]: 31 nM | IC50 [2, 10]: 38 nM | IC50 [3, 11]: 37 nM | IC50 [4, 10]: 3.7 nM | IC50 [6, 10]: 88 nM
SMILES: CC(C)C[C@H](NC(=O)[C@H](CO)NC(=O)[C@H](C)NC(=O)[C@H](CC(N)=O)NC(=O)[C@@H](NC(=O)[C@@H]1CCCN1C(=O)[C@H](CC(C)C)NC(=O)[C@H](Cc1ccc(O)cc1)NC(=O)[C@@H](NC(=O)[C@H](CC(C)C)NC(=O)[C@H](CCC(=O)O)NC(=O)[C@@H](N)CC(C)C)[C@@H](C)O)[C@@H](C)O)C(=O)O [compound 431]

IC50 [1, 10]: 28 nM | IC50 [2, 10]: 36 nM | IC50 [3, 11]: 92 nM | IC50 [4, 10]: 1.7 nM | IC50 [5, 10]: 45 nM | IC50 [6, 10]: 42 nM
SMILES: CC[C@H](C)[C@H](NC(=O)[C@H](CC(C)C)NC(=O)[C@@H](NC(=O)[C@H](Cc1ccc(O)cc1)NC(=O)CNC(=O)[C@H](CCC(N)=O)NC(=O)[C@@H](NC(=O)[C@H](CCC(=O)O)NC(=O)[C@@H](N)CCC(N)=O)C(C)C)C(C)C)C(=O)O [compound 432]

IC50 [1, 12]: > 10000 nM | IC50 [2, 12]: 1190 nM | IC50 [3, 13]: > 10000 nM | IC50 [4, 12]: 13000 nM | IC50 [5, 12]: 7110 nM | IC50 [6, 12]: 18600 nM
SMILES: CC(C)[C@H](NC(=O)[C@H](CCC(=O)O)NC(=O)[C@@H]1CCCN1)C(=O)NCC(=O)N[C@@H](CO)C(=O)N[C@@H](CC(=O)O)C(=O)N[C@@H](CS)C(=O)N[C@H](C(=O)N[C@H](C(=O)O)[C@@H](C)O)[C@@H](C)O [compound 642]

IC50 [1, 14]: 39 nM | IC50 [2, 14]: 41 nM | IC50 [3, 15]: 78 nM | IC50 [4, 14]: 1 nM | IC50 [5, 14]: 43 nM | IC50 [6, 14]: 14 nM
SMILES: CC[C@H](C)[C@H](NC(=O)[C@H](C)NC(=O)[C@H](C)NC(=O)[C@H](CCC(N)=O)NC(=O)[C@H](Cc1ccccc1)NC(=O)[C@H](CCC(=O)O)NC(=O)[C@H](CO)NC(=O)[C@H](CCC(=O)O)NC(=O)[C@@H](N)CC(C)C)C(=O)O [compound 645]

Degeneracy [7]: 4
SMILES: CC[C@H](C)[C@H](N)C(=O)N[C@@H](CCC(=O)O)C(=O)N[C@H](C(=O)N[C@H](C(=O)N[C@@H](CCC(=O)O)C(=O)N[C@H](C(=O)N[C@H](C(=O)N1CCC[C@H]1C(=O)N[C@H](C(=O)O)[C@@H](C)CC)C(C)C)C(C)C)C(C)C)C(C)C [compound 675]

More lines, now with the values behind:

SMILES: C[C@H](NC(=O)[C@H](CCC(=O)O)NC(=O)[C@H](CCC(=O)O)NC(=O)[C@@H](N)CC(N)=O)C(=O)N[C@H](C(=O)NCC(=O)N[C@@H](CCC(N)=O)C(=O)N[C@@H](Cc1ccccc1)C(=O)O)[C@@H](C)O [compound 416]
IC50 [1, 8]: > 10000 nM | IC50 [2, 8]: > 10000 nM | IC50 [3, 9]: 17700 nM | IC50 [4, 8]: 17100 nM | IC50 [5, 8]: 8370 nM | IC50 [6, 8]: 7330 nM

SMILES: CC[C@H](C)[C@H](NC(=O)[C@H](CO)NC(=O)[C@@H]1CCCN1C(=O)[C@H](CCCCN)NC(=O)[C@@H]1CCCN1C(=O)[C@H](CC(C)C)NC(=O)[C@H](CCC(=O)O)NC(=O)[C@@H]1CCCN1)C(=O)O [compound 417]
IC50 [1, 8]: > 10000 nM | IC50 [2, 8]: > 10000 nM | IC50 [3, 9]: > 10000 nM | IC50 [4, 8]: 5140 nM | IC50 [5, 8]: > 10000 nM | IC50 [6, 8]: 9110 nM

SMILES: CC(C)C[C@H](NC(=O)[C@@H]1CCCN1C(=O)[C@H](CO)NC(=O)[C@H](C)NC(=O)[C@H](CCCNC(=N)N)NC(=O)[C@H](CCC(N)=O)NC(=O)[C@H](CCC(=O)O)NC(=O)[C@H](C)N)C(=O)O [compound 434]
IC50 [1, 10]: 13 nM | IC50 [2, 10]: 73 nM | IC50 [3, 11]: 120 nM | IC50 [4, 10]: 0.38 nM | IC50 [6, 10]: 16 nM

SMILES: CC[C@H](C)[C@H](NC(=O)[C@H](CO)NC(=O)[C@@H](NC(=O)[C@H](CC(C)C)NC(=O)[C@@H]1CCCN1C(=O)[C@H](CO)NC(=O)[C@H](C)NC(=O)[C@H](CCCNC(=N)N)NC(=O)[C@H](CCC(N)=O)NC(=O)[C@H](CCC(=O)O)NC(=O)[C@H](C)N)[C@@H](C)O)C(=O)O [compound 435]
IC50 [1, 10]: 58 nM | IC50 [2, 10]: 19 nM | IC50 [3, 11]: 11 nM | IC50 [4, 10]: 2.5 nM | IC50 [5, 10]: 5.1 nM | IC50 [6, 10]: 467 nM

SMILES: CC(C)C[C@H](NC(=O)[C@@H]1CCCN1C(=O)[C@H](C)NC(=O)[C@@H](NC(=O)[C@H](Cc1ccc(O)cc1)NC(=O)CNC(=O)[C@H](CC(=O)O)NC(=O)[C@@H](NC(=O)[C@H](CCC(=O)O)NC(=O)[C@@H](N)CO)[C@@H](C)O)C(C)C)C(=O)O [compound 446]
IC50 [1, 10]: 184 nM | IC50 [2, 10]: 214 nM | IC50 [3, 11]: 302 nM | IC50 [4, 10]: 2.4 nM | IC50 [5, 10]: 386 nM | IC50 [6, 10]: 94 nM

SMILES: CC(C)C[C@H](NC(=O)[C@@H]1CCCN1C(=O)[C@H](CO)NC(=O)[C@H](CCCNC(=N)N)NC(=O)[C@@H]1CCCN1C(=O)[C@H](C)NC(=O)[C@H](CCC(=O)O)NC(=O)[C@H](CCC(=O)O)NC(=O)[C@@H](N)CCC(=O)O)C(=O)O [compound 498]
IC50 [1, 10]: 316 nM | IC50 [2, 10]: 4490 nM | IC50 [3, 11]: 307 nM | IC50 [4, 10]: 362 nM | IC50 [5, 10]: 177 nM | IC50 [6, 10]: 902 nM

SMILES: CC(C)[C@H](NC(=O)[C@@H]1CCCN1C(=O)[C@@H]1CCCN1C(=O)[C@H](C)NC(=O)[C@H](C)NC(=O)[C@H](CCC(=O)O)NC(=O)[C@@H]1CCCN1)C(=O)O [compound 640]
IC50 [1, 12]: > 10000 nM | IC50 [2, 12]: > 10000 nM | IC50 [3, 13]: > 10000 nM | IC50 [4, 12]: 5430 nM | IC50 [5, 12]: > 10000 nM | IC50 [6, 12]: 14200 nM

SMILES: CC[C@H](C)[C@H](NC(=O)[C@@H](NC(=O)[C@@H](NC(=O)[C@H](CS)NC(=O)[C@H](CC(=O)O)NC(=O)[C@H](CO)NC(=O)CNC(=O)[C@@H](NC(=O)[C@H](CCC(=O)O)NC(=O)[C@@H]1CCCN1)C(C)C)[C@@H](C)O)[C@@H](C)O)C(=O)N[C@@H](Cc1c[nH]cn1)C(=O)N[C@@H](Cc1ccc(O)cc1)C(=O)O [compound 643]
IC50 [1, 12]: 7990 nM | IC50 [2, 12]: 10200 nM | IC50 [3]: 2250 nM | IC50 [4, 12]: 1940 nM | IC50 [5, 12]: 4090 nM | IC50 [6, 12]: 1180 nM

SMILES: CC(C)C[C@H](NC(=O)[C@H](CC(N)=O)NC(=O)[C@H](CCC(=O)O)NC(=O)[C@H](CCC(=O)O)NC(=O)[C@@H](N)CCC(=O)O)C(=O)N[C@@H](CCCNC(=N)N)C(=O)N[C@@H](CCCCN)C(=O)N[C@@H](CCCCN)C(=O)NCC(=O)O [compound 644]
IC50 [1, 12]: > 10000 nM | IC50 [2, 12]: 687 nM | IC50 [3]: 18400 nM | IC50 [4, 12]: 706 nM | IC50 [5, 12]: 3660 nM | IC50 [6, 12]: 1460 nM

SMILES: CC[C@H](C)[C@H](NC(=O)CNC(=O)[C@H](Cc1ccccc1)NC(=O)[C@@H](NC(=O)[C@H](CC(C)C)NC(=O)[C@H](CCC(N)=O)NC(=O)[C@H](CC(C)C)NC(=O)[C@H](Cc1ccc(O)cc1)NC(=O)[C@H](CCC(=O)O)NC(=O)[C@@H](N)CO)C(C)C)C(=O)N[C@@H](CCC(=O)O)C(=O)N[C@H](C(=O)N[C@H](C(=O)O)C(C)C)C(C)C [compound 651]
IC50 [1, 14]: 17 nM | IC50 [2, 14]: 44 nM | IC50 [3, 15]: 22 nM | IC50 [4, 14]: 7.6 nM | IC50 [5, 14]: 229 nM | IC50 [6, 14]: 12 nM

SMILES: CC(C)C[C@H](NC(=O)[C@H](Cc1ccccc1)NC(=O)[C@H](CCC(=O)O)NC(=O)[C@@H](N)Cc1ccc(O)cc1)C(=O)N[C@@H](Cc1c[nH]c2ccccc12)C(=O)NCC(=O)N1CCC[C@H]1C(=O)N[C@@H](CCCNC(=N)N)C(=O)N[C@@H](C)C(=O)O [compound 664]
Degeneracy [7]: 5

SMILES: CC(C)C[C@H](NC(=O)[C@H](C)NC(=O)[C@H](CCCNC(=N)N)NC(=O)[C@@H]1CCCN1C(=O)CNC(=O)[C@H](Cc1c[nH]c2ccccc12)NC(=O)[C@H](CC(C)C)NC(=O)[C@H](Cc1ccccc1)NC(=O)[C@H](CCC(=O)O)NC(=O)[C@@H](N)Cc1ccc(O)cc1)C(=O)O [compound 665]
Degeneracy [7]: 5
